From US6861257B1, “Methods for isolation of osteoclast precursor cells and inducing their differentiation into osteoclasts” (Shionogi & Co., Ltd., priority 1998, dated 2005)

Test system: preosteoclasts
Assay: Induction of differentiation of preosteoclasts (from joint fluid of rheumatoid arthritis patients) into osteoclasts in the absence of accessory cells
Format: cell-based
Settings: cytokine in place of human T-STIM in the medium, 37° C., 48-96 hours, no accessory cells
Protocol: The obtained cellular fraction was cultured in DMEM medium (Gibco BRL, #12430-21 or equivalent) supplemented with 10% (v/v) of fetal calf serum (FCS) in 5-7% CO2-containing air at 37° C. for several weeks. During the culture period, all cells except preosteoclasts died out, and only preosteoclasts survived (FIGS. 1, 2).
In the culture condition, the differentiation of preosteoclasts into osteoclasts was observed (FIG. 1, 2).
Human T-STIM contains a variety of cytokines. In order to identify the cytokine which stimulates differentiation of preosteoclasts into osteoclasts, the differentiation was examined by modifycation the contents of Medium A described as previously in Example 1(3).
The following 16 kinds of medium (B-R) were prepared by using the cytokines shown below, alone or a mixture thereof, instead of human T-STIM contained in Medium A (Example 1(3)). […] According to the sequence, cDNA of eotaxin-3 was obtained as shown in SEQ ID No.1. Recombinant baculovirus containing the sequence was prepared to infect insect cells, then the recombinant eotaxin-3 protein was purified from the culture supernatant.)
The preosteoclasts obtained by Example 1(2) were cultured in the Medium […] described above at 37° C. for 48-96 hours.

IL-2: recombinant human IL-2 (R & D Systems)
ability for inducing the differentiation of preosteoclasts: do not have an ability for inducing the differentiation of preosteoclasts

B1: IL-3: recombinant human IL-3 (R & D Systems) (protein, UniProt P08700 20-152, looked up)
Interleukin-3: APMTQTTPLKTSWVNCSNMIDEIITHLKQPPLPLLDFNNLNGEDQDILMENNLRRPNLEAFNRAVKSLQNASAIESILKNLLPCLPLATAAPTRHPIHIKDGDWNEFRRKLTFYLKTLENAQAQQTTLSLAIF
ability for inducing the differentiation of preosteoclasts: have an ability for inducing the differentiation of preosteoclasts
